AlphaSeq binding of Ab-95 light chain variants to a spike HR2 peptide

All variants were tested on one target, the spike HR2 peptide PDVDLGDISGINAS (SARS-CoV-2).

Ab-95 is the parent antibody, in scFv form: VH, then a (GGGGS)3 linker, then VL. The heavy chain is unchanged in all variants.
VH: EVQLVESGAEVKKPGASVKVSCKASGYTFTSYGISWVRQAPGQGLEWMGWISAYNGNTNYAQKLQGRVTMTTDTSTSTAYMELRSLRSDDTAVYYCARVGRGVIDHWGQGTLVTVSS
VL: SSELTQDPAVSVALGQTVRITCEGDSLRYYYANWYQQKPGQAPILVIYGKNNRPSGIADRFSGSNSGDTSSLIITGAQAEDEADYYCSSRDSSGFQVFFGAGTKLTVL

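Phage display of a naive human antibody library on the peptide gave the parent. AAYL52 was designed without a model: most single CDR substitutions and a random sample of double and triple ones. AlphaSeq pools MATa yeast showing the antibodies with MATalpha yeast showing the peptide. The frequency of each diploid, read from paired DNA barcodes, reflects how well the two displayed proteins bind. A regression on co-assayed BCL2-family reference pairs converts the normalised counts of each replicate to an apparent Kd. The assay was run in three technical replicates.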

Positions count from residue 1 of the parent VL; E23D puts D in place of E.
Kd is apparent (estimated from mating counts) and averaged on the log scale over replicates with a signal. Smaller is tighter.
Where no diploid with the target was found in any replicate, the entry reads "not detected": below detection, most likely a poor binder, though not proof of it.
Parent in this assay: reference entry 200 nM, copy in this library 180 nM.

changes | apparent Kd | replicates with signal | control signals
E23D+Y29E+R53W | 37 µM | 2/3 | 2/9
K50V+N52G+D91C | 600 nM | 3/3 | 4/9
S55G+S89T+D91Y | 310 nM | 3/3 | 3/9
S55D+D91V+Q96R | 43 nM | 3/3 | 3/9
K50C+S93A+V97R | not detected | 0/3 | 3/9
E23D+K50R+S89M | 4.6 µM | 3/3 | 6/9
S55C+S88P+D91R | 2.9 µM | 1/3 | 3/9
Y29K+K50Q+G94E | 91 nM | 3/3 | 5/9
E23M+Y30L+Q96S | 1.2 µM | 3/3 | 5/9
G24V+N33K+S93G | 7.4 µM | 3/3 | 2/9
S26Y+Y30P+N52T | 800 nM | 3/3 | 2/9
Y31V+N52H+R90V | 18 µM | 3/3 | 6/9
Y29Q+N52T+S89R | 770 nM | 3/3 | 2/9
R28I+A32R+F95D | 310 µM | 2/3 | 1/9
E23D+S26M | 3.0 µM | 3/3 | 2/9
G24S+Y30L+F95G | 5.7 µM | 3/3 | 3/9
S92C+F95W | 610 nM | 3/3 | 3/9
R28N+Y29I+N33R | 4.2 µM | 2/3 | 6/9
Y31C+S89E+S93A | 3.0 µM | 2/3 | 2/9
S26K+Q96I | 2.8 µM | 1/3 | 1/9
D25A+N52E+S88G | 53 nM | 3/3 | 0/9
G24N+S26R+S55H | 14 µM | 2/3 | 4/9
L27H+S93Y+F95S | not detected | 0/3 | 2/9
A32Q+R53A+R90F | 9.9 µM | 1/3 | 4/9
R28C+R53G+F95I | 97 nM | 1/3 | 0/9
G24A+S89I+F95A | 11 µM | 2/3 | 2/9
S26M+P54G+R90P | 3.5 µM | 2/3 | 4/9
Y30K+N51H+F98K | 3.6 µM | 2/3 | 2/9
E23W+L27P+Q96M | 44 µM | 3/3 | 5/9
N52I+S55Q | 83 nM | 3/3 | 0/9
Y31W+S89L+S93N | 13 µM | 1/3 | 1/9
A32G+G49L+N52S | 2.2 µM | 1/3 | 1/9
Y30V+N52M+G94F | 42 µM | 1/3 | 2/9
S26L+N52V | 350 nM | 3/3 | 5/9
N51C+S55Y+D91H | 16 µM | 3/3 | 3/9
A32R+R53F+S92Y | 30 µM | 1/3 | 0/9
Y30W+A32W+F95T | 280 nM | 3/3 | 4/9
Y31E+K50S+S92E | 9.9 nM | 3/3 | 5/9
Y29Q+F95E | 280 nM | 3/3 | 3/9
E23H+N52T+G94Q | 11 µM | 1/3 | 5/9
G24I+Y30F+V97E | 3.7 µM | 1/3 | 2/9
D25W+N33S+S93V | 9.1 µM | 2/3 | 3/9
N51A+P54Q+G94H | not detected | 0/3 | 3/9
G24L+Y31M+F95V | 5.7 µM | 3/3 | 4/9
Y29W+Y30A+G49D | 790 nM | 3/3 | 1/9
G49Y+P54Y+S93D | 170 µM | 1/3 | 2/9
E23H+Y30N+N52M | 2.0 nM | 3/3 | 7/9
L27W+N33C+P54T | 100 µM | 1/3 | 3/9
R28V+Y31I+Q96H | 11 µM | 2/3 | 2/9
G49T+S88A+F98A | 1.3 µM | 1/3 | 1/9
E23Y+R90I+Q96S | 1.5 µM | 1/3 | 3/9
K50F+N51K+S89F | 13 µM | 2/3 | 6/9
D91H+F95D+Q96E | 430 nM | 3/3 | 3/9

As a blank, each scFv also met three strains without target: over library AAYL52, 28% of these pairings were detected, typically at 8.2 µM and seldom below 800 nM. For each scFv, signals with the empty controls are counted beside the result.

Values reported by Engelhart et al. 2022, doi:10.1038/s41597-022-01779-4 (FLAb copy).